Laboratory results as given in paper PMC7796366, “Application of HPLC-DAD for In Vitro Investigation of Acetylcholinesterase Inhibition Activity of Selected Isoquinoline Alkaloids from Sanguinaria canadensis Extracts” (Molecules, 2021).
Where “and” joins values, the source holds several entries; their conditions need not be identical. Equal values may be shown once.

Amino acid sequences for entries named in this document (tags omitted). Residues count along the entry.
UniProt P22303, 32-614, species assumed: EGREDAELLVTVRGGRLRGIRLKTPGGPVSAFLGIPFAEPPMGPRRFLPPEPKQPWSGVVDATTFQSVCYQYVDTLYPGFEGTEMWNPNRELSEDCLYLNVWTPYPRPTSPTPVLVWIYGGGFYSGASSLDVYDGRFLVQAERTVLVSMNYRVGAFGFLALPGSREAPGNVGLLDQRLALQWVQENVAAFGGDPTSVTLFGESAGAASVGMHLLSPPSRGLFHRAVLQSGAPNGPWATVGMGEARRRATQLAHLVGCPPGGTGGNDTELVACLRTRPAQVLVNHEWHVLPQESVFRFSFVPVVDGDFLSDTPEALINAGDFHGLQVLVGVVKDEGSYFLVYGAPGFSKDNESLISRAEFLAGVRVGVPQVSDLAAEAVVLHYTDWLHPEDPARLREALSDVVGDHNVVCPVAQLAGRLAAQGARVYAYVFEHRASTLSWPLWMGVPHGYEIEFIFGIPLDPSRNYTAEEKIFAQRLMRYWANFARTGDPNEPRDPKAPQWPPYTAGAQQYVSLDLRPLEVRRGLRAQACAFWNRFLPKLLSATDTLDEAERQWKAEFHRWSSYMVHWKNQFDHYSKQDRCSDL

Molecular target: T1, acetylcholinesterase (Homo sapiens, UniProt P22303)
T1 construct: purchased Sigma-Aldrich (St. Louis, MO, USA)
Test: biochemical
Procedure: For determination of acetylcholinesterase inhibitory activity, HPLC analysis was performed on the same apparatus as determination of alkaloid contents on Polar RP column with mobile phase A containing methanol and 0.0025 M diethylamine, mobile phase B containing acetate buffer at pH 3.8 and 0.0025 M diethylamine, and mobile phase in gradient elution: 0–15 min, 10% A; 15–30 min, 10–70% A; 30–60 min, 70% A. Flow rate was 1 mL/min.
[…] Samples for determination of acetylcholinesterase inhibitory activity were prepared by addition of 50 µL of acetylthiocholine iodide, 50 µL of 5′-dithiobis-(2-nitrobenzoic acid), […], and phosphate buffer at pH 7.8 to obtain 500 µL of final solution. […] All components were mixed and samples were incubated for 15 min at 37 °C. Samples were filtrated by syringe filter (CHROMAFIL Xtra, PVDF-29/25 0.20 µm) and injected into the HPLC system.

COc1ccc2cc3[n+](cc2c1OC)CCc1cc2c(cc1-3)OCO2 [Berberine] was tested, and the IC50 was 1070 nM and 1060 nM.
